Experimental data as given in patent US7749694.
pKd: −log10 of the molar value.

Molecular target: pertactin ectodomain (Prn-E) (Bordetella (species not stated))
Test: isothermal titration calorimetry (ITC); too weak to measure reliably, so the value is an estimate

Mtd-M1
pKd: < 3.70
